The assay has as its system nuclear localization of Smad2/3 induced by TGF-β stimulation in TWNT-4 human hepatic stellate cell line. Description: Smad2/3 nuclear localization inhibitory effect (immunofluorescence imaging). The note with it: read-out: EC50; 50% nuclear localization inhibitory concentration; TWNT-4 cells, 1 ng/mL TGF-β1, 24 hours; 100% = TGF-β-treated group without compound, 0% = 10 µM SB431542. As for the experimental part:
TWNT-4 human hepatic stellate cell line was suspended in Dulbecco's modified Eagle's medium (DMEM) containing 10% fetal bovine serum (FBS), seeded onto a 96-well plate at a density of 1×10^3 cells/well, and cultured at 37°C in the presence of 5% CO2 for 24 hours. The compounds of the present invention were dissolved in dimethyl sulfoxide to a concentration of 1 mM, and further diluted with dimethyl sulfoxide and 5% FBS-DMEM so that the final concentrations of the compounds of the present invention were 5000, 1667, 556, 185, 62, 21, 7, and 2 nM, respectively. The medium for the TWNT-4 cells was removed, and 0.1 mL of 1 ng/mL TGF-β1 (Peprotech) was added to each well, followed by culturing for 24 hours. Thereafter, the medium was removed, and the cells were fixed with 4% paraformaldehyde, and washed with phosphate buffered saline (PBS). Blocking was carried out for 30 minutes with PBS containing 2% bovine serum albumin and 0.1% Triton X-100, and the sections were reacted overnight at 4°C with anti-Smad2/3 antibody (Cell Signaling Technology) diluted 1/4000 in the same blocking solution. After the reaction, the plate was washed three times with PBS containing Tween-20 (PBS-T), and then an anti-rabbit immunoglobulin antibody fluorescently labeled with Alexa Fluor 647 (Thermo Fisher Scientific) and the nuclear stain Hoechst 33342 (Dojindo Chemical Industries) were each diluted 1/4000 in blocking solution, and the plate was allowed to react at room temperature for 1 hour. After the reaction was completed, the cells were washed three times with PBS-T and replaced with PBS, and then stained images were obtained using a fluorescence microscope (CellInsight CX5, manufactured by Thermo Fisher Scientific). From the acquired stained images, the nuclear Smad2/3 fluorescence intensity and the cytoplasmic Smad2/3 fluorescence intensity were quantified using analysis software (HCS Studio, manufactured by Thermo Fisher Scientific), and the nuclear localization ratio of Smad2/3 was calculated from the ratio. The 50% nuclear localization inhibitory concentration (EC50 (nM)) was calculated by the least squares method, setting the nuclear localization rate of the TGF-β-treated group without compound treatment as 100% and the TGF-β-treated group with 10 µM of the ALK5 inhibitor SB431542 (Sigma) set as 0%.

Among the data in patent EP4831165A1, “NOVEL SULFONAMIDE DERIVATIVE” (dated 2026) are IC50 values, retold here.

`CNc1ccc(-c2cc3cc(N(S(=O)(=O)c4ccc(C)cc4)S(=O)(=O)c4ccc(C)cc4)ccc3oc2=O)cc1`: the IC50 was 107 nM.
On to `Cc1ccc(S(=O)(=O)N(c2ccc3oc(=O)c(Cc4ccccc4O)cc3c2)S(=O)(=O)c2ccc(C)cc2)cc1`, for which the IC50 is 596 nM.
Take `Cc1ccc(S(=O)(=O)N(c2ccc3oc(=O)c(-c4ccccc4Cl)cc3c2)S(=O)(=O)c2ccc(C)cc2)cc1`: the IC50 came to 29 nM.
For `CCCCc1ccc(S(=O)(=O)N(c2ccc3oc(=O)c(-c4ccccc4C)cc3c2)S(=O)(=O)c2ccc(C)cc2)cc1`, the IC50 worked out at 47 nM.
`CCCCc1ccc(S(=O)(=O)N(c2ccc3c(c2)C=C(c2ccccc2)S(=O)(=O)O3)S(=O)(=O)c2ccc(C)cc2)cc1`: the IC50 stood at 46 nM.
With `Cc1ccc(S(=O)(=O)N(c2ccc3oc(=O)c(-c4ccccc4C)cc3c2)S(=O)(=O)c2cccc3c(N(C)C)cccc23)cc1`, the IC50 came out at 211 nM.
The figure for `Cc1ccc(S(=O)(=O)N(c2ccc3c(c2)C=C(c2ccccc2)S(=O)(=O)O3)S(=O)(=O)c2ccc(C)cc2)cc1` is 37 nM; for `Cc1ccc(S(=O)(=O)N(c2ccc3oc(=O)c(-c4ccccc4C)cc3c2)C(C)C)cc1` it is 564 nM; for `Cc1ccc(S(=O)(=O)N(c2ccc3oc(=O)c(-c4ccccc4C)cc3c2)S(=O)(=O)c2ccc(C)cc2)cc1` it is 47 nM.
In the case of `CCCCc1ccc(S(=O)(=O)N(c2ccc3oc(=O)c(-c4ccccc4Cl)cc3c2)S(=O)(=O)c2ccc(C)cc2)cc1` it was 38 nM; in that of `CCCCc1ccc(S(=O)(=O)N(c2ccc3oc(=O)c(-c4ccc(Cl)cc4)cc3c2)S(=O)(=O)c2ccc(C)cc2)cc1`, 64 nM; in that of `Cc1ccc(S(=O)(=O)N(c2ccc3oc(=O)c(-c4ccccc4C)cc3c2)S(=O)(=O)c2ccc(N(C)C(=O)OCCC[C@H](N)C(=O)O)cc2)cc1`, 334 nM.
The figure for `Cc1ccc(S(=O)(=O)N(c2ccc3oc(=O)c(CC4CCCCC4)cc3c2)S(=O)(=O)c2ccc(C)cc2)cc1` is 148 nM.
Turning to `CCCc1ccc(-c2cc3cc(N(S(=O)(=O)c4ccc(C)cc4)S(=O)(=O)c4ccc(C)cc4)ccc3oc2=O)cc1`, the IC50 was found to be 97 nM.
`COC(=O)N(C)c1ccc(S(=O)(=O)N(c2ccc3oc(=O)c(-c4ccccc4C)cc3c2)S(=O)(=O)c2ccc(C)cc2)cc1`: the IC50 is 72 nM.
With `Cc1ccc(S(=O)(=O)N(c2ccc3oc(=O)c(/C=C/c4ccccc4)cc3c2)S(=O)(=O)c2ccc(C)cc2)cc1`, the IC50 was determined as 566 nM.
Regarding `CCCCOc1ccccc1Cc1cc2cc(N(S(=O)(=O)c3ccc(C)cc3)S(=O)(=O)c3ccc(C)cc3)ccc2oc1=O`, the IC50 is 143 nM.
The figure for `Cc1ccc(S(=O)(=O)N(c2ccc3oc(=O)c(-c4ccccc4C)cc3c2)S(=O)(=O)N(C)CCc2ccccc2)cc1` is 142 nM; for `Cc1ccc(S(=O)(=O)N(c2ccc3oc(=O)c(-c4ccccc4C)cc3c2)S(=O)(=O)N(C)CC2CC2)cc1` it is 304 nM; for `Cc1ccc(S(=O)(=O)N(c2ccc3oc(=O)c(-c4ccccc4C)cc3c2)S(=O)(=O)c2ccc(CN3CCCCC3)cc2)cc1` it is 80 nM.
The figure for `Cc1ccc(S(=O)(=O)N(c2ccc3oc(=O)c(-c4ccccc4C)cc3c2)S(=O)(=O)N2CCOCC2)cc1` is 757 nM; for `Cc1ccc(-c2cc3cc(N(S(=O)(=O)c4ccc(C)cc4)S(=O)(=O)c4ccc(C)cc4)ccc3oc2=O)cc1` it is 51 nM.
